From patent US9487512B2, “(Hetero)aryl cyclopropylamine compounds as LSD1 inhibitors” (ORYZON GENOMICS, S.A., priority 2011, dated 2016) come the findings set out here.

Structures are written as SMILES. pEC50: −log10 of the molar value. Structures can show the parent of a compound that is named as a salt.

For the test, the system named is THP-1 cells. Kind of test: cells. The class given is cell-based. The following applies: Homo sapiens, THP-1, 96 h. As for the experimental part:
THP-1 were purchased from DSMZ GmbH (Deutsche Sammlung von Mikroorganismen und Zellkulturen) and cultured in RPMI 1640 medium containing 10% of fetal bovine serum.
Serial dilutions of the compounds were prepared in DMSO and then further diluted in complete medium to generate solutions of concentrations that are double of the final concentration at which the cells will be exposed. 1 ml of these 2× concentrated solutions was added to the cells.
Each treated sample was split in two. […] Samples were incubated in the dark at 4° C. for 30-60 minutes and washed three times in PBS buffer containing 1% fetal bovine serum.
EC50 values were calculated by non-linear regression analysis.

`c1ccc(COc2ccc([C@@H]3C[C@H]3NC3CCNCC3)cc2)cc1` (relative stereo) [Example 4, N-((trans)-2-(4-(benzyloxy)phenyl)cyclopropyl)piperidin-4-amine hydrochloride] had a pEC50 of 8.72.
